Test results published in patent US8961959B2, “Glucosylceramide synthase inhibitors and therapeutic methods using the same” (The Regents of the University of Michigan, priority 2011, dated 2015).

Tested on: MDR1-MDCKII cells
Test: GCS inhibition (GlcCer production) in MDCKII cells stably expressing human MDR1
Assay type: cell-based, canine
Description: Parental (WT-)MDCKII cells and MDCKII cells retrovirally transduced with human MDR-1 cDNA were obtained from the Netherlands Cancer Institute. Both cell lines were routinely maintained in medium consisting of Opti-MEM/F 12 (1:1), 5% FBS, 100 U/mL of penicillin, 100 μg/mL streptomycin and […] L-glutamine. MDCKII cells were newly thawed from frozen ampules every two months.
Stock solutions of water-insoluble glycosphingolipid inhibitors (100 mM) were prepared by dissolving each inhibitor into 100% ethanol as previously described (3). The inhibitor-ethanol solutions then were diluted 50× into 2 mM delipidated bovine serum albumin-phosphate buffered saline solution to make water-soluble glycosphingolipid inhibitor-bovine serum albumin complexes. The inhibitor-bovine serum album complexes were sterile-filtered and stored at −20° C. […]
Following inhibitor treatment, whole cellular lipids of wild type and MDR1-MDCKII cells were extracted as previously described in detail (10). […] A portion of purified glycosphingolipids normalized to 100 nmol of total phospholipids was analyzed by high performance thin layer chromatography. […] The levels of glucosylceramide were detected by charring with 8% cupric sulfate in 8% phosphoric acid, and quantified by densitometric scanning using ImageJ, NIH Image.

Structure (SMILES): O=C(CC1Cc2ccccc2C1)N[C@H](CN1CCCC1)[C@H](O)c1ccc2c(c1)OCCO2 [Compound 3h, 2-(2,3-dihydro-1H-inden-2-yl)-N-((1R,2R)-1-(2,3-dihydrobenzo[b][1,4]dioxin-6-yl)-1-hydroxy-3-(pyrrolidin-1-yl)propan-2-yl)acetamide]
- increase in IC50 in MDR1-MDCKII cells compared to WT: < 2 fold
- MDR/WT (ratio of MDR1-MDCKII IC50 divided by WT-MDCKII IC50): 1.6
